These results are taken from publication PMC5072635 (PLoS ONE, 2016).

Holding throughout (assay type): cell-based, human
The subject of data set [1] is p85 regulatory domain of PI3K. Kind of data set: TCR-induced PI3K p85 phosphorylation by immunoblotting in APBTs. Particulars: 1% HSA alone. As to the method:
(§1) APBTs were treated with 0.1% ethanol control or 10 μg/ml GML resuspended in serum free media or media supplemented with 1% HSA. The cells were then incubated on ice with 2 μg/ml anti-CD3 for 30 minutes. Cells were then warmed at 37°C for 10 minutes, stimulated using IgG crosslinking antibody for various times and HSA was washed away via centrifugation. Cells were then lysed with 2X sample buffer, heated to 95°C, and sonicated.
Cell lysates were separated by polyacrylamide gel electrophoresis and transferred to PVDF. The membranes were blocked in 0.5X SEA BLOCK blocking buffer diluted in PBS. Primary antibodies were incubated overnight at 4°C. Secondary antibodies were incubated with the membrane for 30 minutes at room temperature and then imaged using Licor Odyssey (Lincoln, NE, USA). […] Immunoblot band intensity was quantified using Odyssey’s v3.0 software with the intensity of the phospho-specific antibody normalized to the intensity of the GAPDH antibody. […]
Supplementary file pone.0165083.s003.pdf: S3 Fig HSA and non-fatty acid free HSA have independent effects on T cell signaling and function. […] Phosphorylation of p85 regulatory domain of PI3K was assessed by immunoblotting with representative blot shown. […] Extracellular cytokine production for IFN-γ (top left), IL-2 (top right), IL-10 (bottom left), or TNFα (bottom right) was measured by ELISA. […]
A general note: Immunoblotting shows a protein as a band on a membrane.

For data set [2], the system named is IL-10 production. Kind of data set: ELISA of TCR-induced IL-10 production by APBTs. Particulars: ethanol control with HSA alone. As to the method: (§2) 0.2% Ethanol control or various doses of GML were added to APBTs in serum free media or media supplemented with between 0.2% to 2% HSA. The cells were then stimulated with plate-bound 2 μg/ml of anti-CD3 (Biolegend) for 24 hours. Protein concentrations of IL-2, IFN-γ, IL-10, and TNF-α in the media supernatants were measured by standard TMB ELISA.
(§3) Fig 6 HSA differentially restores cytokine production in GML treated cells. APBTs were suspended in serum free RPMI or RPMI supplemented with 2%, 1% or 0.2% HSA and were treated with 0.2% ethanol vehicle control, 10 μg/ml, or 20 μg/ml of GML. Cells were plated on 2 μg/ml anti-CD3 coated plates for 24 hours. Extracellular cytokine production for (A) IFN-γ, (B) IL-2, (C) IL-10, or (D) TNFα was measured by ELISA in 3 independent experiments with different human donors. To statistically confirm that GML is suppressing cytokine production without serum, Student t’s test was done by comparing EtOH treated groups with GML treated groups under the same serum free environment, indicated by the black bars, with # denoting p<0.05. […]

The subject of data set [3] is IFN-γ production. Kind of data set: ELISA of TCR-induced IFN-γ production by APBTs. Particulars: ethanol control with HSA alone. As to the method: as §2, §3
Data set [4] concerns AKT phosphorylation at threonine 308 and serine 473. Kind of data set: TCR-induced AKT phosphorylation by immunoblotting in APBTs. As to conditions: 1% HSA alone, baseline and all time points post stimulation. As to the method: as §1
Cell lysates were separated by polyacrylamide gel electrophoresis and transferred to PVDF. The membranes were blocked in 0.5X SEA BLOCK blocking buffer diluted in PBS. Primary antibodies were incubated overnight at 4°C. […] Immunoblot band intensity was quantified using Odyssey’s v3.0 software with the intensity of the phospho-specific antibody normalized to the intensity of the GAPDH antibody. […]
Fig 2 HSA restores AKT phosphorylation at both threonine 308 and serine 473 residues in GML treated cells. […] Phosphorylation of AKT at threonine 308 and serine 473 were assessed by immunoblotting. Representative blots (A) and immunoblot quantification (B) are shown from 5 independent experiments with different individual donors. # denotes p<0.05 in Student t’s test comparing ethanol and GML treated cells in serum free media. * denotes p<0.05 in Student t’s test comparing GML treated cells in serum free RPMI with GML treated cells in 1% HSA.

Turning to “HSA: fatty acid free human serum albumin (Sigma)”, the “phosphorylation of PI3K p85 regulatory domain following TCR stimulation” value in data set [1] is listed as “decreased the phosphorylation”. In data set [2], the “IL-10 production vs ethanol control in serum free group” value is given as “decrease”. In addition, the “IFN-γ production vs ethanol control in serum free group” value in data set [3] is “significant increase”. Besides, the “AKT phosphorylation vs ethanol control” value in data set [4] is “did not have altered AKT phosphorylation”.
